Test results: patent publication US20260014267A1

Biological target: CD3e
Test: ELISA; MTSP1-treated
Details: bispecific antibody

EC50: 0.07 nM
Substance: PC4 + MTSP1
